Assay results taken from paper PMC11237774, “On-target, dual aminopeptidase inhibition provides cross-species antimalarial activity” (mBio, 2024).

Sequences of proteins named here, by UniProt entry; tags and fusion partners are left off. A change or cut given only in a name is not applied to a line headed by its entry.
UniProt Q8IL11: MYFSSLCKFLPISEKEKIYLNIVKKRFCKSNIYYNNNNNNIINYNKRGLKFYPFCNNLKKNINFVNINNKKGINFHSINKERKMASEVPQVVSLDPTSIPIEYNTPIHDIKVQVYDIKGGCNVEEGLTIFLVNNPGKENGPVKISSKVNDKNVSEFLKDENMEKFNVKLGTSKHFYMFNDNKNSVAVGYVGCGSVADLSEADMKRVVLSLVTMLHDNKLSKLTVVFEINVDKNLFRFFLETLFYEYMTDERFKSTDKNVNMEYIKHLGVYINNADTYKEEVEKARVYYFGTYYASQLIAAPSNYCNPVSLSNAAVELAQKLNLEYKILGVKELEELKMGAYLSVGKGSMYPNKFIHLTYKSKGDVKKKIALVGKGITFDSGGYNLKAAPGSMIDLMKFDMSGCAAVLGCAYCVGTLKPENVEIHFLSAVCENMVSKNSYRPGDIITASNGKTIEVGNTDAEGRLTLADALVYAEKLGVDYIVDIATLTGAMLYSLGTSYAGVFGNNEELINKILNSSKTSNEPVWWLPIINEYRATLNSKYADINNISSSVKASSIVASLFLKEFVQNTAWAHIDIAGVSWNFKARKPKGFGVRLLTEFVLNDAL
UniProt O96935: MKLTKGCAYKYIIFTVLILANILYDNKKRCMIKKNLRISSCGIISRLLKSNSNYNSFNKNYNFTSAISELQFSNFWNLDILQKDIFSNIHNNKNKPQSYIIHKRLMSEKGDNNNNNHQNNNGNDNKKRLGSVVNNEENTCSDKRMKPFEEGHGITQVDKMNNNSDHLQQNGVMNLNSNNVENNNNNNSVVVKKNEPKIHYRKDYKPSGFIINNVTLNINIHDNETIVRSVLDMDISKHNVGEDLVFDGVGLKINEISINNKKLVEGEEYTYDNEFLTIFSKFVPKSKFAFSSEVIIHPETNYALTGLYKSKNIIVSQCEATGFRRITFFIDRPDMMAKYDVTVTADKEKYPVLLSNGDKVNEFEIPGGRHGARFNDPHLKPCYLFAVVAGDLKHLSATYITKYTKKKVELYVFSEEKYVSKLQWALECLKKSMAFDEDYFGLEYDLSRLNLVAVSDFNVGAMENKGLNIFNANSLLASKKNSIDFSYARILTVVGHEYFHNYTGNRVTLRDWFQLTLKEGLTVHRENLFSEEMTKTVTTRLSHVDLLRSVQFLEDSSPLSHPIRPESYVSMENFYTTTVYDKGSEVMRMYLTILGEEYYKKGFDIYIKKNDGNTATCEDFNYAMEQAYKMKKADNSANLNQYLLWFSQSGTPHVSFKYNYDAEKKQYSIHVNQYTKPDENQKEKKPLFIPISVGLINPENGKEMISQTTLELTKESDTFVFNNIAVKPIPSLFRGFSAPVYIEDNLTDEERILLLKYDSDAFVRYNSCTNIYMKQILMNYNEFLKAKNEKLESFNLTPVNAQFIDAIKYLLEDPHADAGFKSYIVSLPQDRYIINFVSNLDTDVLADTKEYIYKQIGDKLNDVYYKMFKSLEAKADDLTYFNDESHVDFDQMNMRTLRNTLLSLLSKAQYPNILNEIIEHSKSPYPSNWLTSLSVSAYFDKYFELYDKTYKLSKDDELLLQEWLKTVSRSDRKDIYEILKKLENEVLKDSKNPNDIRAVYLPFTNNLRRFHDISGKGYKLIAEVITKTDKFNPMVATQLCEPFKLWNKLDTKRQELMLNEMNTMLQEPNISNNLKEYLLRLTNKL

Experiments:
PfA-M17 (Pf3D7_1446200) = molecular target: T1, PfA-M17 (Pf3D7_1446200) (Plasmodium falciparum, UniProt Q8IL11); assay: Thermal proteomics profiling; type: binding, P. falciparum; conditions: 60°C thermal challenge
T1 construct: parasite lysate was separated into technical replicates; endogenous in cells; host or cells: P. falciparum parasite lysate

HEK293 cells = system: HEK293 cells; set-up: method as in PMID 30537832; conditions: at 10 µM; cited from earlier work
PfA-M1 (PF3D7_1311800) = molecular target: T2, PfA-M1 (PF3D7_1311800) (Plasmodium falciparum, UniProt O96935); assay: Thermal proteomics profiling; type: binding, P. falciparum; conditions: 60°C thermal challenge
T2 construct: parasite lysate was separated into technical replicates; endogenous in cells; host or cells: P. falciparum parasite lysate

[1] = system: human M1 homologs vs Plasmodium M1; conditions: human homologs LTA4H, ERAP1/2 vs Plasmodium
Method: Inhibition of aminopeptidase activity assays were performed against nine aminopeptidases: the M1 alanyl and M17 leucyl aminopeptidases from P. falciparum (PfA-M1; PfA-M17), P. vivax (Pv-M1; Pv-M17), and P. berghei (Pb-M1; Pb-M17), and three human M1 homologs: LTA4H (OriGene TP307617), ERAP1 (OriGene TP314469), and ERAP2 (Creative BioMart ERAP2-304H). The Plasmodium enzymes were produced recombinantly as described previously ([16], [17]), and the human recombinant enzymes were purchased from commercial suppliers as indicated.
Reactions were measured at 37°C in white 384-well plates in a total volume of 25 or 50 µL using a spectrofluorimeter (BMG FLUOstar) with excitation at 355 nm and emission at 460 nm. The fluorescence signal was continuously monitored until a final steady-state velocity, v, was obtained. Inhibition constants were calculated from biological triplicates made from three different protein preparations.
Substrate concentrations were selected to allow sensitive detection of enzyme activity while not exceeding the Km for each enzyme. […] Where possible, the Ki values were calculated by plotting the initial rates versus inhibitor concentration and fitting to the Morrison equation for tight-binding inhibitors in GraphPad Prism (V.8.4.1; non-linear regression method).

Dd2 = type: cell-based, P. falciparum
Method: (§1) In vitro testing was performed using the modified [^3H]hypoxanthine incorporation assay, as previously reported ([34]). The specific mutations in the field isolates (see Table 1, top six strains) have been previously described ([35], [36]), as have the specific mutations in the laboratory-selected Dd2 parasites (see Table 1, remaining five strains) ([36]).

Dd2 DSM265 = type: cell-based, P. falciparum
Method: as §1

NF54 = type: cell-based, P. falciparum
Method: as §1

TM90C2B = type: cell-based, P. falciparum
Method: as §1

7G8 = type: cell-based, P. falciparum
Method: as §1

Cam3.1 (MRA1240) = type: cell-based, P. falciparum
Method: as §1

K1 = type: cell-based, P. falciparum
Method: as §1

Dd2 GNF156 = type: cell-based, P. falciparum
Method: as §1

Dd2 DDD107498 = type: cell-based, P. falciparum
Method: as §1

Dd2 MMV390048 = type: cell-based, P. falciparum
Method: as §1

Dd2 ELQ300 = type: cell-based, P. falciparum
Method: as §1

CC(C)(C)CC(=O)NC(C(=O)NO)c1ccc(-c2cc(F)c(F)c(F)c2)cc1 (stereo not drawn) [MMV1557817, N-(2-(hydroxyamino)−2-oxo-1-(3′,4′,5′-trifluoro-[1,1′-biphenyl]-4-yl)ethyl)-3,3-dimethylbutanamide]
fold stabilization compared with 0 nM (PfA-M17 (Pf3D7_1446200); 300 nM): 1.28 fold
fold stabilization compared with 0 nM (PfA-M17 (Pf3D7_1446200); 1,200 nM): 1.26 fold
selectivity index (HEK293 cells): ≥ 1,370
fold stabilization compared with 0 nM (PfA-M1 (PF3D7_1311800); 300 nM): 1.36 fold
fold stabilization compared with 0 nM (PfA-M1 (PF3D7_1311800); 1,200 nM): 4.33 fold
selectivity index between human and Plasmodium target [1]: 50–100
Fold shift EC50 relative to Dd2 (Dd2): 1.0
Fold shift EC50 relative to NF54 (Dd2): 1.1
Fold shift EC50 relative to Dd2 (Dd2 DSM265): 0.9
Fold shift EC50 relative to NF54 (NF54): 1.0
Fold shift EC50 relative to NF54 (TM90C2B): 1.0
Fold shift EC50 relative to NF54 (7G8): 1.3
Fold shift EC50 relative to NF54 (Cam3.1 (MRA1240)): 1.1
Fold shift EC50 relative to NF54 (K1): 1.2
Fold shift EC50 relative to Dd2 (Dd2 GNF156): 1.0
Fold shift EC50 relative to Dd2 (Dd2 DDD107498): 1.0
Fold shift EC50 relative to Dd2 (Dd2 MMV390048): 0.8
Fold shift EC50 relative to Dd2 (Dd2 ELQ300): 1.0
